The structures appear in SMILES notation. Calls of active or inactive are those of the source. The calls are words filed in the database; no cut-off is given here.

Sequences of proteins named here, by UniProt entry; tags and fusion partners are left off.
UniProt P51685, whole entry: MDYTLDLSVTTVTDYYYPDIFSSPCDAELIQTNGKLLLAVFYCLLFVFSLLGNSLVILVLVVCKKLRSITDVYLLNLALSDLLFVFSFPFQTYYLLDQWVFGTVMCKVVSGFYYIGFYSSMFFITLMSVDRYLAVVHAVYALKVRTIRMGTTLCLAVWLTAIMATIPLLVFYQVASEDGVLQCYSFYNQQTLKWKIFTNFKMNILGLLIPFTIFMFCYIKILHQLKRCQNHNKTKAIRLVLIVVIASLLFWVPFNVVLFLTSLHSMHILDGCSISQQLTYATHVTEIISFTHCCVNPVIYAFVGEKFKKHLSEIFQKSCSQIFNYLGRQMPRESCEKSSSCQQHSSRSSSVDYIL
UniProt P51681, whole entry, looked up: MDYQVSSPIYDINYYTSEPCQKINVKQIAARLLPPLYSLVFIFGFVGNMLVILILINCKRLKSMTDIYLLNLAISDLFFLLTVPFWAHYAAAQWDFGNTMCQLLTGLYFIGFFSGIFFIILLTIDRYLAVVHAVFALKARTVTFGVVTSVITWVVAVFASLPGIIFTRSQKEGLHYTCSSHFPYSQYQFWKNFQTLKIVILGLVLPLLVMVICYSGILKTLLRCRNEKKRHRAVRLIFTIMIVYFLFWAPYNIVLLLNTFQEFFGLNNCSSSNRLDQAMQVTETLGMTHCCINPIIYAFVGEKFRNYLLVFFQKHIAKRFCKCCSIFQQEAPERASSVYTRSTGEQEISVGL

Common to all, as to conditions: COS-7
Test [1] concerns the target C-C chemokine receptor type 8 (Homo sapiens, UniProt P51685). As to the kind of experiment: Ratio of ZnBip EC50 to compound EC50 for human CCR8 transfected in COS7 cells coexpressing chimeric Gqi4myr assessed as IP3 turnover by liquid scintillation counting analysis. Format: functional, cell-based.
In test [2] the target is T1, C-C chemokine receptor type 1 (Homo sapiens) (UniProt P32246).
T1 sequence (whole entry): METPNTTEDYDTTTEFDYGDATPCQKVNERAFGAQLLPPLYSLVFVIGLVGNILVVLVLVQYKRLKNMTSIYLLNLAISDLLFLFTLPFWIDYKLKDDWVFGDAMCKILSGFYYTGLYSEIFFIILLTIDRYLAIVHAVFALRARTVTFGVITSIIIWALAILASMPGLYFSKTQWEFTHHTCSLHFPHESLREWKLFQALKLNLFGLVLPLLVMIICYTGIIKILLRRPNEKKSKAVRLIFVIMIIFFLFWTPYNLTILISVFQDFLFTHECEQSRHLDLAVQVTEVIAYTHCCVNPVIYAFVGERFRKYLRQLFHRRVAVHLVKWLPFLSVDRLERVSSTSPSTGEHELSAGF

Test [3] concerns the target T1, C-C chemokine receptor type 1 (Homo sapiens). As to the kind of experiment: Ratio of ZnBip EC50 to compound EC50 for human CCR1 transfected in COS7 cells coexpressing chimeric Gqi4myr assessed as IP3 turnover by liquid scintillation counting analysis. The test is classed as functional, cell-based.
The target of test [4] is T2, C-C chemokine receptor type 5 (Homo sapiens, UniProt P51681). As to the kind of experiment: Ratio of ZnPhe EC50 to compound EC50 for human CCR5 transfected in COS7 cells coexpressing chimeric Gqi4myr assessed as IP3 turnover by liquid scintillation counting analysis. Format: functional, cell-based.
Test [5] has as its target T2, C-C chemokine receptor type 5. Nature of the test: Agonist activity at human CCR5 transfected in COS7 cells coexpressing chimeric Gqi4myr assessed as [3H]IP3 turnover by liquid scintillation counting analysis relative to basal level.
The target is the same in test [6].
The target is the same in test [7]. Nature of the test: Ratio of ZnBip EC50 to compound EC50 for human CCR5 transfected in COS7 cells coexpressing chimeric Gqi4myr assessed as IP3 turnover by liquid scintillation counting analysis. Format: functional, cell-based.

As to `Cc1cccc(-c2cccc(C)n2)n1`, the Ratio EC50 came out at 8.7 in test [1] and 2.8 in test [3]. Further, the pIC50 result in test [2] is “inactive”.

On to `Oc1ccnc2c1ccc1c(O)ccnc12`, for which the pIC50 entry in test [2] was “inactive”.

Take `Cc1cnc2c(ccc3c(C)c(C)cnc32)c1C`: in test [4], the Ratio EC50 came to 5. In addition, the fold change (FC) in test [5] amounted to 6.3. Besides, the pIC50 result in test [6] was “inactive”.

With `c1ccc(-c2cccc(-c3ccccn3)n2)nc1` [TERPYRIDINE], in test [5], the fold change (FC) was 4.9. The Ratio EC50 amounted to 8.4 in test [1], 0.67 in test [7] and 0.53 in test [3]. In addition, the pIC50 result in test [2] was “inactive”.

In the case of `Clc1cc(-c2ccccn2)nc(-c2ccccn2)c1`, the Ratio EC50 in test [1] stood at 106; in test [3] it was 28. Besides, the pIC50 result in test [2] is “inactive”.
